The values that follow are results of earlier work, collected in US6509371B1, “Compositions containing Bergamottin for increasing the oral bioavailability of pharmaceutical agents” (Warner-Lambert Company, priority 1997, dated 2003).

By UniProt entry, the sequences of proteins in these tests, tags left out.
UniProt P08684, whole entry: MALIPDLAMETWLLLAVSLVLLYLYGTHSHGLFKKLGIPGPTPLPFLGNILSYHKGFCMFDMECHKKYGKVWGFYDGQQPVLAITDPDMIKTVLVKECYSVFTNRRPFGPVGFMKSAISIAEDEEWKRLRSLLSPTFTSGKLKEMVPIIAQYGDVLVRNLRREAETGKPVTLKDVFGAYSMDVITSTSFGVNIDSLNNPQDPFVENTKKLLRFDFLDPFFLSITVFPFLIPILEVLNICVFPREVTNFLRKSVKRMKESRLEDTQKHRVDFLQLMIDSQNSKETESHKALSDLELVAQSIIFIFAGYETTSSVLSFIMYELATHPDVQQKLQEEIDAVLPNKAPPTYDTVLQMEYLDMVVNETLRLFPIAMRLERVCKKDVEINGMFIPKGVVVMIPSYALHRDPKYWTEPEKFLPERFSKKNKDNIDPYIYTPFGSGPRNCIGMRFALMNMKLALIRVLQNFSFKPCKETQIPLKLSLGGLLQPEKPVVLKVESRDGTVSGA

Only a part of the results on these compounds is given; other tests are left out.

The target of one series is P450 3A4 (Homo sapiens, UniProt P08684). The conditions noted are these: in vivo; cited from earlier work.
The conditions of series [1]: cited from earlier work.

With `CCC(=O)N(c1ccccc1)C1(COC)CCN(CCn2nnn(CC)c2=O)CC1`, the “Fraction Metabolized” value on P450 3A4 was >90%. For the same molecule, the “Oral Bioavailability” value in series [1] is “Very Low”.
